Consider one compound from patent US20260325535A1 (AXSOME THERAPEUTICS, INC., priority 2025, published 2026).

This series is described as follows: pKa. Format: physicochemical.

For the compound `Cc1cnc(NC(=O)C2=C(O)c3ccccc3S(=O)(=O)N2C)s1` [Meloxicam, 4-hydroxy-2-methyl-N-(5 methyl-2-thiazolyl)-2H-1,2-benzothiazine-3-carboxamide-1,1-dioxide], the pKa (usually the pH at which an ionisable group is half protonated) amounted to 4.2.
